The chains behind the UniProt entries cited, without tags or fusion partners. Residues count along the entry.
UniProt Q9UPP1, 37-483 limits assumed: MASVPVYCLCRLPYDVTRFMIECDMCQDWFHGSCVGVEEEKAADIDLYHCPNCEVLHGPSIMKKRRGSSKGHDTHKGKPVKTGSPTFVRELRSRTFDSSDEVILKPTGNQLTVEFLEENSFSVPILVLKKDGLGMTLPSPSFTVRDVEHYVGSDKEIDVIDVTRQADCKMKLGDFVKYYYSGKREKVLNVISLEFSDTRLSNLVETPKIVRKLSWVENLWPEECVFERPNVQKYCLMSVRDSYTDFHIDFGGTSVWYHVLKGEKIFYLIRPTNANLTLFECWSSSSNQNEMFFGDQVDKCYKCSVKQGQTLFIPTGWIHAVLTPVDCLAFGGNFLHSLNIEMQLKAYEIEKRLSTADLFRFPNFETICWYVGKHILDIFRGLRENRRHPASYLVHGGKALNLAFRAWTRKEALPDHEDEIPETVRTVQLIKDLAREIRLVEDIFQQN

According to PMC10321576, “Cyclic peptides target the aromatic cage of a PHD-finger reader domain to modulate epigenetic protein function” (Chemical Science, 2023):

Target: T1, KDM7B dual domain (Homo sapiens, UniProt Q9UPP1)
T1 construct: dual domain (PHD-JmjC) of KDM7B; His-tag (C); made in house
Assay: MALDI-TOF-MS KDM7 activity assay (H3 peptide demethylation)
Format: biochemical
Details: KDM7B 0.4 μM, N = 2 experiments in technical triplicate
From the text: We tested the effect of OC9 on KDM7B demethylation of H3_1–21K4me3K9me2 and the less-efficient H3_1–21K9me2 substrate by MALDI-TOF MS based assay.[14,19] […] Inhibition by OC9 was further confirmed by an orthogonal AS activity assay[58] (Fig. S41 ^†). […] As KDM7B aromatic cage mutation results in the same phenotypic outcome as JmjC catalytic site inactivation (e.g. KDM7B demethylase-dependent melanoma metastasis[20]), our results emphasise the crucial role of PHD-fingers in regulating KDM7 demethylase activity and the need to explore PHD-finger viability as therapeutic targets.
Fig. 5 KDM7 PHD-finger inhibition by OC9 modulates dual domain JmjC activity. (a) (i–iii) OC9 inhibits demethylation of H3K9me2, with or without K4me3, by KDM7B (0.4 μM) on H3 peptide (2.5 μM). […] (b) (i–iii) OC9 enhances demethylation of H3K4me3K9me2 by KDM7A (0.55 μM) on H3 peptide (2.5 μM), and (iv) enhances KDM7A (0.5 μM) demethylation of calf histone extracts (50 μg). […] Inset MALDI-TOF-MS overlays are from respective highest OC9 concentration points compared to DMSO alone. KDM7 PHD-finger only proteins had no demethylase activity (Fig. S40 ^†). Calf histone H3K9me2 was quantitated relative to H4 band intensities at each time point, normalised to DMSO at t = 0. Full Western blots available in Fig. S42. ^† Relative rates (Krel min^−1) from a one-phase decay model, average from N = 3 independent experiments. […]

## CN(C)NC(=O)CCC(=O)O [DAM, daminozide]
KDM7B K4me3K9me2 pIC50^MS/M
  IC50: 398 nM
KDM7B K9me2 pIC50^MS/M
  IC50: 251 nM
